Values quoted from earlier work as cited in patent US12533344B2, “Formulations” (Glaukos Corporation, priority 2021, dated 2026).

Details: for Effective Buffering Range: pH range

Substance: Acetic acid/acetate buffer
- Effective Buffering Range: 3.0-6.2

Substance: Boric acid/borate buffer
- pKa (buffers and stabilizers of Table 1): 9.14
- Effective Buffering Range: 8.0-10.0
